Values after ≈ are worked out from the molar mass of the structure shown.
Key:
[1] = molecular target: thioredoxin reductase/thioredoxin (Homo sapiens, UniProt Q16881); assay: thioredoxin reductase/thioredoxin-dependent insulin reduction assay; type: biochemical; details: for IC50 (μg/ml) in TR/Trx Assay: Table I, 30 min preincubation
[2] = test system: NCI's panel of 60 human cancer cell lines; details: mean 50% growth inhibition concentration, entire cell line panel; cited from earlier work
leukemia cell line = details: mean 50% growth inhibition concentration; cited from earlier work
glutathione reductase = glutathione reductase (Homo sapiens, UniProt P00390); assay: glutathione reductase assay (DTNB reduction); type: biochemical; details: Table II
thioredoxin reductase = thioredoxin reductase (Homo sapiens, UniProt Q16881); assay: thioredoxin reductase assay (DTNB reduction)

By UniProt entry, the sequences of proteins in these tests, tags left out. Residues count along the entry.
UniProt Q16881, 151-649: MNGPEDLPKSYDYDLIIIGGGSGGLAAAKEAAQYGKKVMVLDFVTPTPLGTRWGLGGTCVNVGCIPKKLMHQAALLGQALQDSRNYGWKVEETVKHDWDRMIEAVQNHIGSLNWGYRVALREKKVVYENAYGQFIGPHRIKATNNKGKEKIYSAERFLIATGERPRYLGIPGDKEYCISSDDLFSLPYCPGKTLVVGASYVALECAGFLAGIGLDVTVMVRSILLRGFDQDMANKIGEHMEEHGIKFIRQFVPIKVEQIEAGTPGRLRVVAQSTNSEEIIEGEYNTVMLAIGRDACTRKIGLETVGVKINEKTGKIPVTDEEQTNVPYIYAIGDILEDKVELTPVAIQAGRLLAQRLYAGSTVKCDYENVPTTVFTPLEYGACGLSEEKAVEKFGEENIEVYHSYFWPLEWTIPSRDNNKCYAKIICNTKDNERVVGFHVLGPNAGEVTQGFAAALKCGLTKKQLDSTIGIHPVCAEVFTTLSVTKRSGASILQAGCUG
UniProt P00390, 44-522: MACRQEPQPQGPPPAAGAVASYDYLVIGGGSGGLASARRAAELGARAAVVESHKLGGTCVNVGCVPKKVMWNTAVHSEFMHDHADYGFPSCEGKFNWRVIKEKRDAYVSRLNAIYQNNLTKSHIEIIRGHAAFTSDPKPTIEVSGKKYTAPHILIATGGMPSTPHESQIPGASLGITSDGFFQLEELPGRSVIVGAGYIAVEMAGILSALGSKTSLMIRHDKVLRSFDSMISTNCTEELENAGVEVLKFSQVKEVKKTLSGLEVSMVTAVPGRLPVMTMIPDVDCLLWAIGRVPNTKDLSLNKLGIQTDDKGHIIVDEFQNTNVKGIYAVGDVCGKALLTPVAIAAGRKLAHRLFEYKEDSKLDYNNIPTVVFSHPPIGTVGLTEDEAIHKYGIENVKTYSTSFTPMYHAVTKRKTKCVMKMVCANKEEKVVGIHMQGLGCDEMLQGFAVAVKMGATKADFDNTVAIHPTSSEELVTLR

Structure (SMILES) | IC50 (μg/ml) in TR/Trx Assay [1] | GI50 (μg/ml) All Tumors [2] | GI50 (μg/ml) Leukemias (leukemia cell line) | IC50TRTrx ([1]; Table II) | in vitro IC50 TR/Trx (μg/ml) ([1]; Table III) | TR/TRTrx ([1]; ratio of IC50 TR alone and IC50 TR/Trx assay) | IC50GR (glutathione reductase) | IC50TR (thioredoxin reductase; Table II, thioredoxin reductase alone) | GR/TR (thioredoxin reductase; ratio of IC50 glutathione reductase to IC50 thioredoxin reductase)
C[C@@H]1O[C@@H](CC(=O)O)CC2=C1C(=O)c1c(O)cccc1C2=O | 3.0 µg/mL (≈ 9.92 µM) | 0.1 µg/mL (≈ 0.331 µM) | 0.03 µg/mL (≈ 0.0992 µM) |  |  |  |  |  | 
CN(C)CC1CCC(CN(C)C)C1=O (centres unmarked) | 0.39 µg/mL (≈ 1.97 µM) | 2.9 µg/mL (≈ 14.6 µM) |  | 0.39 µg/mL (≈ 1.97 µM) | ≦0.5 μg/ml | 2.6 | 30 µg/mL (≈ 151 µM) | 1 µg/mL (≈ 5.04 µM) | 30

— patent publication US6372772B1, “Inhibitors of redox signaling and methods of using same” (Prolx Pharmaceuticals Corporation, priority 1997, dated 2002)
